Experimental findings from ChEMBL document CHEMBL5143713, “Multitarget, Selective Compound Design Yields Potent Inhibitors of a Kinetoplastid Pteridine Reductase 1” (J Med Chem, 2022) are described below.

The target in the test is T1, Pteridine reductase 1 (Leishmania major, UniProt Q01782).
T1 sequence (Q01782 whole entry): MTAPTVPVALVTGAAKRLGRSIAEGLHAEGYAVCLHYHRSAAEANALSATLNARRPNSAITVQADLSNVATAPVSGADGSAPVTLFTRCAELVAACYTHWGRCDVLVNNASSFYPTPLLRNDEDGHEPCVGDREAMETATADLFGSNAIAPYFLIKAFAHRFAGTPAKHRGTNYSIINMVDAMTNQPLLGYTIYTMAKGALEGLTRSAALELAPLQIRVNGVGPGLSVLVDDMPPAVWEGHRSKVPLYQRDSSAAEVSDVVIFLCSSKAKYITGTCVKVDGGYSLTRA
Put plainly: Inhibition of recombinant Leishmania major PTR1 expressed in Escherichia coli BL21 (DE3) cells using H2B as substrate in presence of cytochrome c and NADPH by envision multilabel reader.

The IC50 is the concentration at which inhibition is half-maximal.

Structures are written as SMILES.

With `COC(=O)C1CCN(C(=O)c2ccc(N(C)Cc3cnc4nc(N)nc(N)c4n3)cc2)CC1`, the 50% inhibitory concentration (IC50) was 980 nM.

Consider `COC(=O)C1CCN(C(=O)c2ccc(N(CCO)Cc3cnc4nc(N)nc(N)c4n3)cc2)CC1`, for which the IC50 stood at 4720 nM.
